From publication PMC5799184, “Gs- versus Golf-dependent functional selectivity mediated by the dopamine D1 receptor” (Nature Communications, 2018)

Protein sequences, listed by entry. Tags and fused reporters are not part of them. Lines headed by an entry give the natural chain unless they say otherwise; changes in a name come on top. Residues count along the entry.
UniProt P14416, 1-414 isoform P14416-2: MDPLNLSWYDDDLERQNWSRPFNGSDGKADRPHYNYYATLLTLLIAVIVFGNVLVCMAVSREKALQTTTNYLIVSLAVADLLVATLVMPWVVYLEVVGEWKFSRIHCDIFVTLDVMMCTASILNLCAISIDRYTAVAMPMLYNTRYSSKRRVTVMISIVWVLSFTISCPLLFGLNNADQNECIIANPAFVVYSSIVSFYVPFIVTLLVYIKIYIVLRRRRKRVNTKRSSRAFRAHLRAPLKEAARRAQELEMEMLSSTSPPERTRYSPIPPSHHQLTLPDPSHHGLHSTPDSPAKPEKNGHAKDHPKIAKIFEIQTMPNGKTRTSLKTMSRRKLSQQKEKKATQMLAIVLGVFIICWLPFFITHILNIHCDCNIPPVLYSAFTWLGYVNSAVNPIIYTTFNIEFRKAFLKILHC

Biological target: T1, D2R (D2SR), Go activation (Homo sapiens, UniProt P14416)
T1 construct: gene DRD2

For Oc1cc2c(c(Cl)c1O)CCNCC2c1ccccc1 (stereo not shown) [SKF81297], the EC50 was “DHX and SKF81297 were about one order of magnitude less potent”.
